Antibody variant affinities, Ab-95 light chain, assay 2

Reference: Engelhart et al. 2022, doi:10.1038/s41597-022-01779-4. File: FLAb, binding data.

All variants were tested on one target, the spike HR2 peptide PDVDLGDISGINAS (SARS-CoV-2).

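Library AAYL52 holds single substitutions and randomly drawn double and triple substitutions in the CDRs. The assay is AlphaSeq: two haploid yeast populations carry antibody and antigen on their surface. Mating (16 h, 30 °C) was followed by selection of diploids and sequencing of their barcodes. Scores were corrected for input abundance and mapped to Kd with protein pairs of known affinity run in the same pool. Each pool was mated in three replicate cultures.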

Parent scFv Ab-95: VH joined to VL by three GGGGS repeats. Changes lie in the light chain CDRs alone.
VH: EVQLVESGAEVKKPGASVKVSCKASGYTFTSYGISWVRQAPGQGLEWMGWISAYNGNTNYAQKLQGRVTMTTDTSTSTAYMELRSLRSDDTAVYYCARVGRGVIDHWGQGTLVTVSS
VL: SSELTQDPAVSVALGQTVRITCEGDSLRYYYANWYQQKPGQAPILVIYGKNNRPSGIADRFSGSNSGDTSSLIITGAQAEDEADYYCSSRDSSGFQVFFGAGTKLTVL

Positions count from residue 1 of the parent VL; N51I puts I in place of N.
Every variant below is changed at R53 of the VL (sequential numbering).
Values are apparent Kd, the geometric mean of the replicates that gave a signal; lower means stronger binding.
A pair that was not seen in any replicate is written "no signal"; this usually means weak binding, but a binder can also be missed.
Entries are sorted by rising average, undetected variants last.

Variant N51I R53W S93H showed 280 nM (2 of 3 replicates; controls 3 of 9). For S26F N52V R53K, the assay gave 350 nM (3 of 3 replicates; controls 4 of 9). For L27C Y29G R53H, the assay gave 570 nM (3 of 3 replicates; controls 1 of 9). Variant E23K R53Y Q96N showed 750 nM (3 of 3 replicates; controls 4 of 9). Variant R53T D91F Q96N showed 870 nM (2 of 3 replicates; controls 4 of 9).

With R53N S88F G94F the result was 1.0 µM (3 of 3 replicates; controls 2 of 9). For R53T S89K F98M, the assay gave 1.1 µM (2 of 3 replicates; controls 1 of 9). With E23I R53N F98P the result was 1.3 µM (3 of 3 replicates; controls 3 of 9). For N51D R53A F95M, the assay gave 1.7 µM (3 of 3 replicates; controls 3 of 9). For D25C R53H S93F, the assay gave 1.8 µM (1 of 3 replicates; controls 3 of 9).

For Y29E K50Q R53N, the assay gave 2.0 µM (3 of 3 replicates; controls 8 of 9). With N51G R53D S89H the result was 3.4 µM (1 of 3 replicates; controls 1 of 9). For R53C S89L, the assay gave 3.4 µM (3 of 3 replicates; controls 3 of 9). With D25H R28D R53H the result was 3.4 µM (3 of 3 replicates; controls 3 of 9). Variant Y29D A32E R53N gave 3.8 µM (1 of 3 replicates; controls 3 of 9).

Variant A32C N51D R53S gave 3.9 µM (2 of 3 replicates; controls 3 of 9). For R53W P54T G94A, the assay gave 4.1 µM (1 of 3 replicates; controls 3 of 9). Variant R53H G94I V97E showed 4.4 µM (3 of 3 replicates; controls 1 of 9). With R28T N52I R53H the result was 5.3 µM (1 of 3 replicates; controls 4 of 9). With Y29N Y30I R53Q the result was 6.1 µM (3 of 3 replicates; controls 4 of 9).

For N52A R53E S89C, the assay gave 6.3 µM (3 of 3 replicates; controls 1 of 9). For S26D R53I D91L, the assay gave 6.5 µM (2 of 3 replicates; controls 7 of 9). For D25R Y31I R53K, the assay gave 6.7 µM (3 of 3 replicates; controls 3 of 9). With N52V R53I R90Y the result was 6.9 µM (1 of 3 replicates; controls 4 of 9). With K50F R53A the result was 6.9 µM (2 of 3 replicates; controls 3 of 9).

For K50C R53D, the assay gave 8.1 µM (1 of 3 replicates; controls 2 of 9). With E23F S26G R53C the result was 8.1 µM (3 of 3 replicates; controls 6 of 9). Variant Y29R Y31C R53D showed 9.4 µM (3 of 3 replicates; controls 5 of 9). With L27C Y31P R53C the result was 10 µM (3 of 3 replicates; controls 3 of 9). Variant R53C S88P D91I showed 10 µM (3 of 3 replicates; controls 3 of 9).

With L27D R53L F95C the result was 14 µM (1 of 3 replicates; controls 1 of 9). With D25T N52P R53I the result was 16 µM (3 of 3 replicates; controls 4 of 9). With G24L A32G R53S the result was 16 µM (2 of 3 replicates; controls 3 of 9). With E23Y R53W Q96L the result was 16 µM (2 of 3 replicates; controls 0 of 9). Variant N51F R53I G94R showed 18 µM (1 of 3 replicates; controls 3 of 9).

With N52D R53W P54G the result was 20 µM (2 of 3 replicates; controls 1 of 9). For K50C R53C P54R, the assay gave 23 µM (1 of 3 replicates; controls 4 of 9). For R28T R53C Q96S, the assay gave 25 µM (2 of 3 replicates; controls 3 of 9). Variant G24D R53E F95A gave 30 µM (3 of 3 replicates; controls 6 of 9). With L27M R53C the result was 39 µM (1 of 3 replicates; controls 4 of 9).

Variant R53I S92G G94H showed 67 µM (2 of 3 replicates; controls 2 of 9). With A32G R53D S88D the result was 120 µM (1 of 3 replicates; controls 5 of 9). Variant R53E Q96Y showed 190 µM (1 of 3 replicates; controls 3 of 9). For G49V R53V D91A, the assay gave 220 µM (1 of 3 replicates; controls 1 of 9). For R28L G49I R53T, the assay gave no signal (0 of 3 replicates; controls 3 of 9).

Variant S26Q Y30F R53Q gave no signal (0 of 3 replicates; controls 3 of 9). For L27E R53F S55C, the assay gave no signal (0 of 3 replicates; controls 0 of 9). Variant N52K R53D D91Y gave no signal (0 of 3 replicates; controls 3 of 9). For A32F R53H, the assay gave no signal (0 of 3 replicates; controls 1 of 9). Variant R28G R53K R90E showed no signal (0 of 3 replicates; controls 0 of 9).

The last 4 entries again:

changes	Kd	seen in	control signals
L27E R53F S55C	no signal	0 of 3	0 of 9
N52K R53D D91Y	no signal	0 of 3	3 of 9
A32F R53H	no signal	0 of 3	1 of 9
R28G R53K R90E	no signal	0 of 3	0 of 9

Empty control strains, which show no peptide, gave a signal in 28% of pairings with library AAYL52; the median was 8.2 µM and 95% of these signals were weaker than 800 nM. No background was subtracted. Also given: how often the same scFv was detected with the empty control strains.